# Measurements published in PMC5074076, “Novel minimal physiologically-based model for the prediction of passive tubular reabsorption and renal excretion clearance” (European Journal of Pharmaceutical Sciences, 2016).
# Conditions: pKa (base), measured, potentiometric
smiles,measurement,value
CN(C)CCC(c1ccc(Cl)cc1)c1ccccn1 (stereo not shown) [Chlorpheniramine],pKa,9.35
